Reference: patent US20140255406A1

Legend:
human IL-17 (human) [1] = target: human IL-17 (human) (UniProt Q16552); assay: cell-based or functional assay
Human IL-17A/F (human) = Human IL-17A/F (human) (UniProt Q16552); assay: SPR, Biacore T200, 37 °C, antibody captured on protein A, IL-17 in solution, 1:1 model
Human IL-17A (human) = Human IL-17A (human) (UniProt Q16552); assay: as above
human IL-17 (human) [2] = target: human IL-17 (human) (UniProt Q16552); assay: SPR, Biacore T200, 25 °C, antibody captured on protein A and saturated with TNFα, then 80 nM human IL-17 injected for 2 minutes

| Substance | Average % inhibition of human IL-17-induced CXCL1 production in vivo (mouse plasma) (human IL-17 (human) [1]) [%] | IC50, inhibition of IL-17-induced secretion of CXCL1 by HT-29 cells (human IL-17 (human) [1]) [nM] | Kd (Human IL-17A/F (human)) [nM] | Kd (Human IL-17A (human)) [nM] | additional binding signal (RU) (human IL-17 (human) [2]) |
| --- | --- | --- | --- | --- | --- |
| bispecific antibody of the present invention (anti-TNFα / anti-IL-17; two first polypeptides of SEQ ID NO: 1 and two second polypeptides of SEQ ID NO: 2) | 81.9 | 0.628 | 0.0423 |  |  |
| bispecific antibody of the present invention (anti-TNFα / anti-IL-17; two first polypeptides of SEQ ID NO: 1 and two second polypeptides of SEQ ID NO: 2) (bispecific antibody; other documents disagree on this pair) |  |  |  | 0.0089 | 37 |
